pIC50: −log10 of the molar value.

This passage reports IC50 and Ratio IC50 results from ChEMBL document CHEMBL3714768, “Tautomycetin and Tautomycetin analog biosynthesis” (2012).

Experiment [1] is described as follows: Cytotoxicity against human HCT116 cells by fluorescent Calcein-AM assay. In kind it is functional, cell-based. The conditions noted are these: HCT-116.
The nature of experiment [2]: Cytotoxicity against human DU145 cells by fluorescent Calcein-AM assay. It counts as functional, cell-based. The conditions noted are these: DU-145.
In a further experiment the test system is MCF7. Nature of the experiment: Cytotoxicity against human MCF7 cells by fluorescent Calcein-AM assay. It counts as functional, cell-based.
Experiment [3] in a line: Selectivity index, ratio of IC50 for purified human red blood cell PP2A (unknown origin) to IC50 for purified rabbit skeletal muscle PP1.

The pIC50 is the IC50 on a negative log10 scale, so that one unit is a factor of ten. As for `C=C/C(=C/C(=O)C[C@H](C)C[C@@H](C)CC[C@H](O)[C@H](C)C(=O)C[C@@H](O)[C@H](C)[C@@H](C)OC(=O)C[C@@H](O)C1=C(C)C(=O)OC1=O)CC`, the negative-log IC50 (pIC50) is 5.17 in experiment [1], 5.28 in experiment [2] and 5.05 in the experiment with MCF7.
In the case of `CCC(/C=C/C(=O)O)=C\C(=O)C[C@H](C)C[C@@H](C)CC[C@H](O)[C@H](C)C(=O)C[C@@H](O)[C@H](C)[C@@H](C)OC(=O)C[C@@H](O)C1=C(C)C(=O)OC1=O`, in experiment [3], the Ratio IC50 was 3.3.
